A selection: hits, their analogues and other compounds. The true share with any hit is near 1.3%.
S100A4 inh HTS – inhibitors of human S100A4 binding to myosin IIA peptide; P26447; S100A4/TAMRA-MyoIIA peptide fluorescence polarization; inhibition, % at 10.7 µM; hit rate 0.14% among 360,000;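 active = mean inhibition of at least 70% across replicates, with every replicate also reaching that level; inconclusive = mean inhibition reaches 70% but some replicates fall short; inactive = mean inhibition below 70%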
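incubation = readout 5 min after mixing, signal stable up to 60 min | system = S100A4 monomer protein | buffer or medium = HEPES pH 7.2 with CaCl2, KCl, NaCl, DTT, Triton | benchmarks = neutral control DMSO, positive control TFP | also added = fluorescent myosin IIA peptide, 5 nM | compound dosing = one concentration per compound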
ERAP1 HTS inh – inhibitors of human ERAP1 aminopeptidase. Q9NZ08. recombinant ERAP1, Leu-AMC fluorescence, 60 min. inhibition, % at 10.7 µM. hit rate 0.15% among 340,000. AID 652197;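 active = mean replicate inhibition of at least 30%, or all replicates individually reaching that 30% level; inactive = mean below 30% and not every replicate reaching it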;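 note: 0% = neutral control wells and 100% = L-leucinethiol positive control wells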
AF4-AF9 inh – MLL-AF4/AF9 protein interaction inhibition; P42568; AlphaScreen, biotin-AF4 peptide binding to FLAG-AF9; inhibition, % at 10 µM; hit rate 0.47% among 350,000;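 active = every replicate reaching a set inhibition limit, whatever the replicate mean, cut at about 25% in these data; inconclusive = mean inhibition reaches that limit but some replicates miss it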;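 note: 0% = plate neutral control median and 100% = total signal loss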
E-sel inducer – induces E-selectin expression in human endothelial cells; P16581; HUVEC E-selectin immunofluorescence imaging; normalized: neutral wells 0, TNF-alpha wells 100; activation, % at 7.58 µM; hit rate 0.37% among 260,000; AID 686992;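 active = mean E-selectin-positive cell signal at least 10% of the positive control, reached in at least 60% of replicates, without over 20% cell loss; inconclusive = no rule given, readout overlaps actives, possibly toxicity-flagged; inactive = the rest, including those meeting only one limit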
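Read-out basis: % PE-positive cells; Test system: HUVEC primary endothelial cells; Technique: immunofluorescence imaging; Dosing: single-point compound dose.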
ARNT-TACC3 inh – disruptors of human ARNT/TACC3 interaction; hit rate 0.66% among 390,000; inhibition, % at 9.99 µM; AlphaScreen His-ARNT PAS-B/GST-TACC3 binding, luminescence; TACC3 fragment carries E629A point mutation; Q9Y6A5;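 active = mean inhibition of replicates at least 50% and at least half of replicates each reaching 50%; inconclusive = half or more replicates reach 50% but mean below 50%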;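 note: 0% = complete ARNT plus TACC3 wells and 100% = ARNT alone without TACC3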
Yeast UUG start – alters start codon recognition fidelity in yeast. S. cerevisiae UUG-firefly luciferase reporter, luminescence/redox ratio. activity score, % at 18.7 µM. 0.13% of 350,000 active. AID 602363;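 active = replicate mean at a twofold rise or more, about +100% in these data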;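 also: firefly luciferase made from a UUG start codon reports start codon fidelity; reporter light over untreated wells divided by growth signal over untreated wells; some hits fall short of that in this replicate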
Active calls of the source: *; u = inconclusive; x = not tested or not shown; ! = not active in a repeat.

#	Molecule	ERAP1 HTS inh	E-sel inducer	Yeast UUG start
1	Cc1nnc(NC(=O)CSc2nnc(CC(=O)Nc3ccccc3Cl)n2C)s1	-2	0	x
2	COCC(=O)Nc1ccc2c(c1)C(=O)N(C)C[C@@H](OC)[C@H](C)CN(C(=O)c1ccccc1F)[C@@H](C)CO2	2	0	-10
3	CCS(=O)(=O)Nc1ccc2c(c1)C(=O)N(C)[C@@H]1CC[C@@H](CC(=O)OC)O[C@@H]1CO2	0	0	4
4	Fc1cccc(CN2[C@@H]3CNC[C@H]2C3c2ccc(-c3ccncc3)cc2)c1 (stereo partly drawn)	0	0	x
5	COc1cccc(-c2ccc([C@@H]3[C@H](CO)N4CCCCN(C(=O)c5ccc(F)cc5)C[C@@H]34)cc2)c1	2	0	27
6	CC(C)(O)C#Cc1ccc([C@H]2[C@H](CO)N3CCCCN(C(=O)c4ccc(F)cc4)C[C@@H]23)cc1	1	0	13
7	CC(C)(O)C#Cc1ccc([C@H]2[C@@H](CO)N3CCCCN(C(=O)c4ccc(F)cc4)C[C@H]23)cc1	4	0	7
8	COc1cccc(CN2CCC3(CC2)CN(C(=O)Nc2ccc(F)cc2)[C@H](CO)c2c3c3ccc(OC)cc3n2C)c1	x	0	x
9	COc1ccc2c3c(n(C)c2c1)[C@@H](CO)N(C(=O)Nc1ccc(F)cc1)CC31CCN(Cc2ccccn2)CC1	0	0	x
10	COc1ccc(NC(=O)Nc2ccc3c(c2)CC(=O)N([C@@H](C)CO)C[C@@H](C)[C@H](CN(C)S(=O)(=O)c2c(C)noc2C)O3)cc1	-2	x	7
11	Cc1cccc(OCc2nc(-c3ccc(-n4cccc4)cc3)no2)c1	1	0	-10
12	Cc1ccc(OCc2nc(-c3cccnc3)no2)cc1C	2	424*	1

#	S100A4 inh HTS	ARNT-TACC3 inh	AF4-AF9 inh
1	-1	-2	1
2	1	-6	-2
3	2	2	-3
4	-3	x	30*!
5	113*	3	-3
6	104*	-9	1
7	53	-6	-3
8	x	x	36*
9	7	x	29*
10	1	-13	9
11	0	x	-10
12	-11	3	-2

With a hit mark in S100A4 inh HTS (from the list above):
| # | structure | ERAP1 HTS inh | Yeast UUG start | S100A4 inh HTS | ARNT-TACC3 inh | AF4-AF9 inh |
| --- | --- | --- | --- | --- | --- | --- |
| 5 | COc1cccc(-c2ccc([C@@H]3[C@H](CO)N4CCCCN(C(=O)c5ccc(F)cc5)C[C@@H]34)cc2)c1 | 2 | 27 | 113* | 3 | -3 |
| 6 | CC(C)(O)C#Cc1ccc([C@H]2[C@H](CO)N3CCCCN(C(=O)c4ccc(F)cc4)C[C@@H]23)cc1 | 1 | 13 | 104* | -9 | 1 |

New compounds follow.
#	Molecule	ERAP1 HTS inh	E-sel inducer	Yeast UUG start
13	Cc1ccc(OCc2nc(-c3ccc(-n4cccc4)cc3)no2)cc1C	5	-1	-6
14	Cc1cc(C)cc(OCc2nc(-c3cccnc3)no2)c1	11	x	x
15	CCOc1ccc(N=Cc2c(C)[nH]n(-c3nc4ccccc4[nH]3)c2=O)cc1	0	0	x
16	COC(=O)C(C)Sc1ncnc2c1c(-c1ccccc1)cn2-c1ccc(OC)cc1 (stereo not drawn)	x	x	0
17	CCOC(=O)C(C)Sc1ncnc2c1c(-c1ccccc1)cn2-c1ccc(OC)cc1 (stereo not drawn)	-2	0	-19
18	COc1ccc2c3c(n(C)c2c1)[C@H](CO)N(CC1CCOCC1)CC31CN(C(=O)c2cccc(F)c2)C1	x	0	x
19	Cc1noc(C)c1NC(=O)N(C)C[C@@H]1Oc2ccc(NS(=O)(=O)c3ccccc3)cc2C(=O)N([C@@H](C)CO)C[C@H]1C	3	0	-17
20	Cc1[nH]nc2c1C(c1ccco1)C(C#N)=C(N)O2 (stereo not drawn)	2	114*	-5
21	CC(C)(C)c1[nH]nc2c1C(c1ccco1)C(C#N)=C(N)O2 (stereo not drawn)	-2	x	x
22	O=C(N/N=C/c1cc(Br)ccc1O)c1ccncc1	4	x	-32
23	O=C(N/N=C/c1ccccc1)c1cc[n+]([O-])cc1	4	0	x
24	COc1ccc(/C=N/NC(=O)C(=O)Nc2ccccn2)cc1OC	x	x	-28

#	S100A4 inh HTS	ARNT-TACC3 inh	AF4-AF9 inh
13	-1	x	38*
14	-3	-2	-9
15	-2	72*	-2
16	x	49*	x
17	1	-26	0
18	x	x	-9
19	-16	1	-4
20	4	37	0
21	-4	0	-2
22	-6	61*	u
23	-2	5	5
24	x	0	x

(next part)
#	Molecule	ERAP1 HTS inh	E-sel inducer	Yeast UUG start
25	COc1ccc(/C=N/NC(=O)c2ccncc2)cc1[N+](=O)[O-]	-2	x	x
26	O=C(N/N=C/c1ccccc1O)C(=O)Nc1ccccn1	-2	x	x
27	COc1cc(O)c(/C=N/NC(=O)c2ccncc2)c(OC)c1[N+](=O)[O-]	4	-1	x
28	O=C(N/N=C/c1ccccc1O)c1cc[n+]([O-])cc1	7	0	-14

#	S100A4 inh HTS	ARNT-TACC3 inh	AF4-AF9 inh
25	0	5	-2
26	-15	48*	-5
27	5	65*	3
28	-3	63*	0

Source: PubChem (Broad Institute)
